15 compounds from patent publication US11618753B2 (priority 2018, dated 2023) can be followed below.

The chains behind the UniProt entries cited, without tags or fusion partners. Where a name states a change or a piece, a line headed by the entry shows the natural chain unless it says otherwise.
UniProt O00329: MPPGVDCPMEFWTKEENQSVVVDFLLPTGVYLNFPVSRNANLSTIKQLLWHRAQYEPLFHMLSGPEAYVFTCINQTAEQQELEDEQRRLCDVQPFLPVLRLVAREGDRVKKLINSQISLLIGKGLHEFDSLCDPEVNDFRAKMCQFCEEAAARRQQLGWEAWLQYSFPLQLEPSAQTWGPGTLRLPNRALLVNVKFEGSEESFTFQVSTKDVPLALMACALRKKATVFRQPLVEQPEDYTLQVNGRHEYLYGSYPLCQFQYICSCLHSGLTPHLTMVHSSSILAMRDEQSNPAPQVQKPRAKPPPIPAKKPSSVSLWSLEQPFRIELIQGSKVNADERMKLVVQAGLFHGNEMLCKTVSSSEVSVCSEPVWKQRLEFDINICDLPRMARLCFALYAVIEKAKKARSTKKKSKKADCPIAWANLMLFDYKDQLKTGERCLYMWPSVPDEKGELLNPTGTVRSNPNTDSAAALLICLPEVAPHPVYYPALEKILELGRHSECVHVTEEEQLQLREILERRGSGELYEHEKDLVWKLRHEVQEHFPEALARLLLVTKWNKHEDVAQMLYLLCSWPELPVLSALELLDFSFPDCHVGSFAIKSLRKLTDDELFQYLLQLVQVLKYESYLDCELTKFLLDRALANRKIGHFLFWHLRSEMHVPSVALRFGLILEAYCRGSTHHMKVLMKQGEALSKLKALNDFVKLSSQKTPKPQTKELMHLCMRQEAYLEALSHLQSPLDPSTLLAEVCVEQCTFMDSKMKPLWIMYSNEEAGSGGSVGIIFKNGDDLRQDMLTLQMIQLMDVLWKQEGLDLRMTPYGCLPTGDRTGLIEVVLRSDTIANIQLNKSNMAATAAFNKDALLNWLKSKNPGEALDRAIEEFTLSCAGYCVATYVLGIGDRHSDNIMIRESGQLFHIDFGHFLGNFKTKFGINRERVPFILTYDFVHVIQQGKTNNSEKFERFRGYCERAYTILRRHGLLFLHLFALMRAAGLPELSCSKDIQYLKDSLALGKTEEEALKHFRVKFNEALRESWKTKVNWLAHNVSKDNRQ

Molecules are shown by their SMILES.

As a reminder, the IC50 is the concentration that inhibits the measured activity by half. Low readings indicate higher potency, high ones lower potency.

In the assay the target is GST-tagged PIK3Cδ in complex with PIK3R1 (Homo sapiens (Human), UniProt O00329). Briefly: biochemical.
Turning to `Cc1c(F)cc(-c2cc(CN3CC(F)(F)C3)c3c(N)ncnn23)cc1C(=O)N[C@@H]1CN(C(=O)C2CC2(F)F)C[C@@H]1F` (stereo partly drawn) [Example 1564, 5-{4-amino-5-[(3,3-difluoroazetidin-1-yl)methyl]pyrrolo[2,1-f][1,2,4]triazin-7-yl}-N-[(3R,4S)-1-(2,2-difluorocyclopropanecarbonyl)-4-fluoropyrrolidin-3-yl]-3-fluoro-2-methylbenzamide], the IC50 was > 15 µM.

In turn, `COc1ncc(-c2cc(C3CC3)c3c(N)ncnn23)cc1C(=O)N[C@@H]1CN(C(=O)[C@@](C)(O)C(F)(F)F)C[C@@H]1F` [Example 1567, 5-{4-amino-5-cyclopropylpyrrolo[2,1-f][1,2,4]triazin-7-yl}-N-[(3R,4S)-4-fluoro-1-[(2R)-3,3,3-trifluoro-2-hydroxy-2-methylpropanoyl]pyrrolidin-3-yl]-2-methoxypyridine-3-carboxamide] registered an IC50 of 3.17 µM. On to `Cc1ccc(-c2cc(CN3CCOCC3)c3c(N)ncnn23)cc1C(=O)N[C@@H]1CN(C(=O)OCC(F)(F)F)C[C@@H]1F` [Example 1577, 2,2,2-trifluoroethyl (3R,4S)-3-(5-{4-amino-5-[(morpholin-4-yl)methyl]pyrrolo[2,1-f][1,2,4]triazin-7-yl}-2-methylbenzamido)-4-fluoropyrrolidine-1-carboxylate], for which the IC50 was > 15 µM.

Consider `Cc1cc(F)c(-c2cc(CN3CCC(F)(F)CC3)c3c(N)ncnn23)cc1C(=O)N[C@@H]1CN(C(=O)C2CC(F)(F)C2)C[C@@H]1F` [Example 1578, 5-{4-amino-5-[(4,4-difluoropiperidin-1-yl)methyl]pyrrolo[2,1-f][1,2,4]triazin-7-yl}-N-[(3R,4S)-1-(3,3-difluorocyclobutanecarbonyl)-4-fluoropyrrolidin-3-yl]-4-fluoro-2-methylbenzamide], for which the IC50 was > 15 µM.

As to `COc1ncc(-c2cc(CN3CCC(F)(F)C3)c3c(N)ncnn23)cc1C(=O)N[C@@H]1CN(C(=O)C2CC(F)(F)C2)C[C@@H]1F` [Example 1581, 5-{4-amino-5-[(3,3-difluoropyrrolidin-1-yl)methyl]pyrrolo[2,1-f][1,2,4]triazin-7-yl}-N-[(3R,4S)-1-(3,3-difluorocyclobutanecarbonyl)-4-fluoropyrrolidin-3-yl]-2-methoxypyridine-3-carboxamide], the IC50 is > 15 µM.

`COc1ncc(-c2ccc3c(N)ncnn23)cc1C(=O)N[C@@H]1CN(C(=O)[C@@](C)(O)C(F)(F)F)C[C@@H]1F` [Example 1595, 5-{4-aminopyrrolo[2,1-f][1,2,4]triazin-7-yl}-N-[(3R,4S)-4-fluoro-1-[(2R)-3,3,3-trifluoro-2-hydroxy-2-methylpropanoyl]pyrrolidin-3-yl]-2-methoxypyridine-3-carboxamide]: the IC50 was > 15 µM. `COc1ncc(-c2cc(OC(F)F)c3c(N)ncnn23)cc1C(=O)N[C@@H]1CN(C(=O)[C@@](C)(O)C(F)(F)F)C[C@@H]1F` [Example 1606, 5-[4-amino-5-(difluoromethoxy)pyrrolo[2,1-f][1,2,4]triazin-7-yl]-N-[(3R,4S)-4-fluoro-1-[(2R)-3,3,3-trifluoro-2-hydroxy-2-methylpropanoyl]pyrrolidin-3-yl]-2-methoxypyridine-3-carboxamide]: it took 0.437 µM to reach half-maximal inhibition (IC50). With `COc1ncc(-c2cc(CN3CC(F)(F)C3)c3c(N)ncnn23)cc1C(=O)N[C@@H]1CN(C(=O)[C@@](C)(O)C(F)(F)F)C[C@@H]1F` [Example 1616, 5-{4-amino-5-[(3,3-difluoroazetidin-1-yl)methyl]pyrrolo[2,1-f][1,2,4]triazin-7-yl}-N-[(3R,4S)-4-fluoro-1-[(2R)-3,3,3-trifluoro-2-hydroxy-2-methylpropanoyl]pyrrolidin-3-yl]-2-methoxypyridine-3-carboxamide] the figure was 14.8 µM. In turn, `COc1ncc(-c2cc(CN3CCC(F)(F)CC3)c3c(N)ncnn23)cc1C(=O)N[C@@H]1CN(C(=O)c2ccccc2F)C[C@@H]1F` [Example 1626, 5-{4-amino-5-[(4,4-difluoropiperidin-1-yl)methyl]pyrrolo[2,1-f][1,2,4]triazin-7-yl}-N-[(3R,4S)-4-fluoro-1-(2-fluorobenzoyl)pyrrolidin-3-yl]-2-methoxypyridine-3-carboxamide] came in with an IC50 of 6.27 µM.

Regarding `COc1cc(F)c(-c2cc(CN3CCC(F)(F)CC3)c3c(N)ncnn23)cc1C(=O)N[C@@H]1CN(C(=O)C2CC(F)(F)C2)C[C@@H]1F` [Example 1633, 5-{4-amino-5-[(4,4-difluoropiperidin-1-yl)methyl]pyrrolo[2,1-f][1,2,4]triazin-7-yl}-N-[(3R,4S)-1-(3,3-difluorocyclobutanecarbonyl)-4-fluoropyrrolidin-3-yl]-4-fluoro-2-methoxybenzamide], the IC50 was 5.11 µM. `COc1cc(F)c(-c2cc(CN3CCC(F)(F)CC3)c3c(N)ncnn23)cc1C(=O)N[C@@H]1CN(C(=O)C(C)(C)C(F)(F)F)C[C@@H]1F` [Example 1638, 5-{4-amino-5-[(4,4-difluoropiperidin-1-yl)methyl]pyrrolo[2,1-f][1,2,4]triazin-7-yl}-4-fluoro-N-[(3R,4S)-4-fluoro-1-(3,3,3-trifluoro-2,2-dimethylpropanoyl)pyrrolidin-3-yl]-2-methoxybenzamide] gave an IC50 of 7.85 µM.

With `COc1cc(F)c(-c2cc(CN3CCC(C(F)(F)F)CC3)c3c(N)ncnn23)cc1C(=O)N[C@@H]1CN(C(=O)[C@@](C)(O)C(F)(F)F)C[C@@H]1F` [Example 1639, 5-(4-amino-5-{[4-(trifluoromethyl)piperidin-1-yl]methyl}pyrrolo[2,1-f][1,2,4]triazin-7-yl)-4-fluoro-N-[(3R,4S)-4-fluoro-1-[(2R)-3,3,3-trifluoro-2-hydroxy-2-methylpropanoyl]pyrrolidin-3-yl]-2-methoxybenzamide], the IC50 was > 15 µM. With `Cc1ccc(-c2cc(CN3CCC(C(F)(F)F)CC3)c3c(N)ncnn23)cc1C(=O)N[C@@H]1CN(C(=O)[C@@](C)(O)C(F)(F)F)C[C@@H]1F` [Example 1647, 5-(4-amino-5-{[4-(trifluoromethyl)piperidin-1-yl]methyl}pyrrolo[2,1-f][1,2,4]triazin-7-yl)-N-[(3R,4S)-4-fluoro-1-[(2R)-3,3,3-trifluoro-2-hydroxy-2-methylpropanoyl]pyrrolidin-3-yl]-2-methylbenzamide] the figure was 7.94 µM.

`Cc1cc(F)c(-c2cc(CN3CCC(F)(F)CC3)c3c(N)ncnn23)cc1C(=O)N[C@@H]1CN(C(=O)C2CC2(F)F)C[C@@H]1F` (stereo partly drawn) [Example 1655, 5-{4-amino-5-[(4,4-difIuoropiperidin-1-yl)methyl]pyrrolo[2,1-f][1,2,4]triazin-7-yl}-N-[(3R,4S)-1-(2,2-difluorocyclopropanecarbonyl)-4-fluoropyrrolidin-3-yl]-4-fluoro-2-methylbenzamide] gave an IC50 of 5.57 µM.

Turning to `Cc1cc(F)c(-c2cc(CN3CCC(F)(F)CC3)c3c(N)ncnn23)cc1C(=O)N[C@@H]1CN(C(=O)CC(O)(C(F)(F)F)C(F)(F)F)C[C@@H]1F` [Example 1656, 5-{4-amino-5-[(4,4-difIuoropiperidin-1-yl)methyl]pyrrolo[2,1-f][1,2,4]triazin-7-yl}-4-fluoro-N-[(3R,4S)-4-fluoro-1-[4,4,4-trifluoro-3-hydroxy-3-(trifluoromethyl)butanoyl]pyrrolidin-3-yl]-2-methylbenzamide], the IC50 turned out to be 5.26 µM.
